Experimental data published in article PMC8976073 (Nature Communications, 2022).

How the values were obtained:
FPR2 [1] = molecular target: T1, FPR2 (Homo sapiens, UniProt P25090); test: Competition binding: inhibition of WK(FITC)YMVm binding to FPR2 (wild type and mutants), HEK293F cells; parameters: expressed in transfected cells; host or cells: HEK293F cells, pTT5 vector, co-transfected with GαΔ6qi4myr (1:2 w/w); settings: FPR2 WT, mean ± SEM
T1 sequence (P25090 1-351): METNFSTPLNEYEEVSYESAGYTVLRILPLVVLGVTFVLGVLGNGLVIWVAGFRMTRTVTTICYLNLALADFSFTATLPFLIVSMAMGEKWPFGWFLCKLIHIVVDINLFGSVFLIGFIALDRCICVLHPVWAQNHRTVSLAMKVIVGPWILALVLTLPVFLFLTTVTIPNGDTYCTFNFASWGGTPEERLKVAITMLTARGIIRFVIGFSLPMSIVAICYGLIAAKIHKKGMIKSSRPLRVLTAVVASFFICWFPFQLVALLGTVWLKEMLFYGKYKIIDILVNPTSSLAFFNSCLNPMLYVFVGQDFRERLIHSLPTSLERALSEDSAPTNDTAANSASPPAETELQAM
Experimental: (§1) The genes of wild-type FPR1 and FPR2 and mutants with a Flag tag at the N termini were cloned into pTT5 vector (Invitrogen) and expressed in HEK293F cells (Invitrogen). Cells were harvested 48 h post transfection with 1 μg ml^−1 plasmid. Cell-surface expression of the receptors was measured by mixing 10 μl cells with 15 μl of TBS buffer supplemented with 4% BSA, 20% (v/v) viability-staining solution 7-AAD (Invitrogen, Cat#00-6993-50), and 0.1% (v/v) anti-FLAG M2-FITC antibody (Sigma, Cat#F4049) at 4 °C for 20 min. After incubation, 175 μl of TBS buffer was added and the fluorescent signal was measured using a flow-cytometry reader (Guava easyCyte HT, Millipore). Then, the cells were washed and resuspended to a final concentration of 1 × 10^6 cells per ml in Hanks’ Balanced Salt Solution (HBSS) buffer supplemented with 0.5% bovine serum albumin (BSA) and 20 mM HEPES, pH 7.4.
(§2) The mean fluorescent intensity of each well was then read by the FCM reader. Total binding and nonspecific binding were measured in the absence and presence of the unlabeled ligand (200 μM WKYMVm), respectively. […] Mean fluorescent-intensity values were measured by flow cytometry. Data were analyzed using Prism 8.0 (GraphPad software).

FPR2 [2] = molecular target: T2, FPR2 (Homo sapiens, UniProt P25090, S84R); test: as above; settings: FPR2 S84R, mean ± SEM
T2 construct: expressed in transfected cells; host or cells: HEK293F cells, pTT5 vector
T2 sequence (P25090 1-351 S84R): T1 sequence (P25090 1-351) with S84R
Experimental: as §1, §2

| Ki (FPR2 [1]) | Ki (FPR2 [2]) | Structure (SMILES) |
| --- | --- | --- |
| 20 µM | – | CC[C@H](C)[C@H](NC(=O)[C@H](CCC(=O)O)NC(=O)[C@H](CO)NC(=O)[C@@H](NC(=O)[C@H](CC(C)C)NC(=O)[C@H](CC(C)C)NC(=O)[C@H](CC(C)C)NC(=O)[C@H](CC(C)C)NC(=O)[C@H](CS)NC(=O)[C@H](CO)NC(=O)[C@H](Cc1ccccc1)NC(=O)CNC(=O)[C@H](CCCNC(=N)N)NC(=O)[C@@H]1CCCN1C(=O)[C@H](C)NC(=O)[C@H](C)NC=O)[C@@H](C)O)C(=O)N[C@@H](CC(=O)O)C(=O)N[C@@H](CC(C)C)C(=O)N1CCC[C@H]1C(=O)N[C@H](C(=O)N[C@@H](CCCCN)C(=O)N[C@@H](CCCNC(=N)N)C(=O)N[C@@H](CCCNC(=N)N)C(=O)N[C@@H](C)C(=O)O)C(C)C [M1A] |
| 0.1 µM | 4.9 µM | CC[C@H](C)[C@H](NC(=O)[C@H](CCC(=O)O)NC(=O)[C@H](CO)NC(=O)[C@@H](NC(=O)[C@H](CC(C)C)NC(=O)[C@H](CC(C)C)NC(=O)[C@H](CC(C)C)NC(=O)[C@H](CC(C)C)NC(=O)[C@H](CS)NC(=O)[C@H](CO)NC(=O)[C@H](Cc1ccccc1)NC(=O)CNC(=O)[C@H](CCCNC(=N)N)NC(=O)[C@@H]1CCCN1C(=O)[C@H](C)NC(=O)[C@H](CCSC)NC=O)[C@@H](C)O)C(=O)N[C@@H](CC(=O)O)C(=O)N[C@@H](CC(C)C)C(=O)N1CCC[C@H]1C(=O)N[C@H](C(=O)N[C@@H](CCCCN)C(=O)N[C@@H](CCCNC(=N)N)C(=O)N[C@@H](CCCNC(=N)N)C(=O)N[C@@H](C)C(=O)O)C(C)C [fHN, N-formyl humanin] |

Positions count from the first letter of the chain named.
